Measurements reported in patent US11447485B2, “Class of bifunctional compounds with quanternary ammonium salt structure” (Beijing Showby Pharmaceutical Co., Ltd., priority 2016, dated 2022).

Sequences of proteins named here, by UniProt entry; tags and fusion partners are left off. A change or cut given only in a name is not applied to a line headed by its entry.
UniProt P11229: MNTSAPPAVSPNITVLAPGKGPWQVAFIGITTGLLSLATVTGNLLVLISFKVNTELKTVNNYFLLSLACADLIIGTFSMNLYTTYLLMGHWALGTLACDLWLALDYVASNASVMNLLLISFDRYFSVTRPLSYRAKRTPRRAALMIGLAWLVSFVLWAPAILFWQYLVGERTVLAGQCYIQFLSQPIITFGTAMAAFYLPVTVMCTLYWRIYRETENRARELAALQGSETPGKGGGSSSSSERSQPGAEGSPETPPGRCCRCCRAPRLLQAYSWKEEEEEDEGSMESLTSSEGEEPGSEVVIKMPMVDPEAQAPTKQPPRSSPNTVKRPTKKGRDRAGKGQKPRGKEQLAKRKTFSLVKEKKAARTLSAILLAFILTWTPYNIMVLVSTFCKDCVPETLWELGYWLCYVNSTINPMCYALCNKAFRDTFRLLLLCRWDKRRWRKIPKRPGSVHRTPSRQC
UniProt P08172, whole entry: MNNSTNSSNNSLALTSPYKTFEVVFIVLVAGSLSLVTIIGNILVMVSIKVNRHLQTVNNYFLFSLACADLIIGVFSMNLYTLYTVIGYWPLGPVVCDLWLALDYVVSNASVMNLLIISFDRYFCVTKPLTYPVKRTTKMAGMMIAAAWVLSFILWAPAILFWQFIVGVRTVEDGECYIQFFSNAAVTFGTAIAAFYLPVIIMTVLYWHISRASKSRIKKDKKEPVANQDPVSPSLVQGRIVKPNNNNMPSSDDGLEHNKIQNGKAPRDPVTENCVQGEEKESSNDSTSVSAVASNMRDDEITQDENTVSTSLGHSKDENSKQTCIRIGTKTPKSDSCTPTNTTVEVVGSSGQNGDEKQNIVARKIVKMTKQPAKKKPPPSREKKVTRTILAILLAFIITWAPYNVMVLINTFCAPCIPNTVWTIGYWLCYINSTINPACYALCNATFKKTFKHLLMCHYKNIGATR
UniProt P20309, whole entry: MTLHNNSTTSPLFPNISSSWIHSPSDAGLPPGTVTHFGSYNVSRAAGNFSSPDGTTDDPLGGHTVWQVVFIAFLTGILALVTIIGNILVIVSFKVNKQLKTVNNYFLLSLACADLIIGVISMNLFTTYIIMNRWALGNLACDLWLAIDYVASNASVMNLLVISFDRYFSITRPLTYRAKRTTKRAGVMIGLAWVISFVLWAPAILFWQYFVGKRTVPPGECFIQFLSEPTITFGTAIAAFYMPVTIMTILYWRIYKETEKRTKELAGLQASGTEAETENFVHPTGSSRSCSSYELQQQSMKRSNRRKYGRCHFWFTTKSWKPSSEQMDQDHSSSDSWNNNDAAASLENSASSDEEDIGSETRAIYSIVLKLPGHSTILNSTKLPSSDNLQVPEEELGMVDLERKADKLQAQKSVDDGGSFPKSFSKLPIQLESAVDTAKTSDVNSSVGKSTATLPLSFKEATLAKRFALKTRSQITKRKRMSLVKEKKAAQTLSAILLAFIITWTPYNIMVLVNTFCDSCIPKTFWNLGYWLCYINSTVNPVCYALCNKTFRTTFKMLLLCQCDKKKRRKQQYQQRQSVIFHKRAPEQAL

What was measured:
Test in all cases: biochemical
Type in all cases: binding
[1] = molecular target: human recombinant M1 receptor (Homo sapiens, UniProt P11229)
[2] = molecular target: human recombinant M2 receptor (Homo sapiens, UniProt P08172)
[3] = molecular target: human recombinant M3 receptor (Homo sapiens, UniProt P20309)

## CC(C)[N+]1(C)[C@@H]2CC[C@H]1C[C@@H](OC(=O)C(CO)c1ccccc1)C2 (stereo partly drawn) [Ipratropium bromide, ipratropium bromide, reference compound]
[1]
  Ki: 1.41 ± 0.45 nM
[2]
  Ki: 0.81 ± 0.12 nM
[3]
  Ki: 0.692 ± 0.21 nM
